Data from BindingDB's records for 25268943.

The chains behind the UniProt entries cited, without tags or fusion partners.
UniProt P41145, whole entry: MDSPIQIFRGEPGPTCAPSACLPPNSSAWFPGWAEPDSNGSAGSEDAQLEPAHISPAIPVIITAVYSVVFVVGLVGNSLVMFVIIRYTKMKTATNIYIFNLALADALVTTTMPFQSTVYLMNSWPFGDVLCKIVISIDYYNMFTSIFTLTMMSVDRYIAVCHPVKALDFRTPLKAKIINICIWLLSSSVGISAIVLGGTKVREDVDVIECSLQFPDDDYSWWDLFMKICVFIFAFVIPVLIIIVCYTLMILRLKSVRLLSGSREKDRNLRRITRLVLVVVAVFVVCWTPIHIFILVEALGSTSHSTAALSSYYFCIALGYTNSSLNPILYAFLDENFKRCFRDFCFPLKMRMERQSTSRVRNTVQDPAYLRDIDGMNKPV
UniProt P41143, whole entry: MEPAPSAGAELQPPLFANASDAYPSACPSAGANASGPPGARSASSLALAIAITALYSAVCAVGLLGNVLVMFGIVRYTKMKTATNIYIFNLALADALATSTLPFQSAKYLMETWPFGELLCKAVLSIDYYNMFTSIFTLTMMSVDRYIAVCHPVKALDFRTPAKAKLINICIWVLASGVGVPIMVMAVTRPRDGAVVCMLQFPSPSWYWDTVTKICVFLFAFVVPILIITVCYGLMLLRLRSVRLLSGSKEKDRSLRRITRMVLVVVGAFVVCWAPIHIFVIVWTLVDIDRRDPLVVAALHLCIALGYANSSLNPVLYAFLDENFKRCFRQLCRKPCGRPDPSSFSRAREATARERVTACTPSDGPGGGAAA
UniProt P35372, whole entry: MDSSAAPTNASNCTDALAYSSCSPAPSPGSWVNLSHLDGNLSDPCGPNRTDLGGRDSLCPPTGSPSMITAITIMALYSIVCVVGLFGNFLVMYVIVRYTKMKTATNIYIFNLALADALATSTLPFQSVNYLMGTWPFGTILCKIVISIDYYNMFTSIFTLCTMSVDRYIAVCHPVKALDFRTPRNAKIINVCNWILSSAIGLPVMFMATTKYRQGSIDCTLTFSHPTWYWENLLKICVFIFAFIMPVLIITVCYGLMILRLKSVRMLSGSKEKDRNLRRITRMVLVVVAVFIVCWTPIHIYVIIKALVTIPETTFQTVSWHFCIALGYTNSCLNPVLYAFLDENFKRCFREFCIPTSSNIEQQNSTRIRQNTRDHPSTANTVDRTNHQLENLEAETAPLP

Key:
[1] = target: Kappa-type opioid receptor (Homo sapiens, UniProt P41145); test: Displacement of [3H]U-69593 from human KOR expressed in HEK293 cells after 60 mins by scintillation counting analysis
[2] = target: Delta-type opioid receptor (Homo sapiens, UniProt P41143)
[3] = target: Mu-type opioid receptor (Homo sapiens, UniProt P35372); test: Displacement of [3H]DAMGO from human MOR expressed in HEK293 cells after 60 mins by scintillation counting analysis

In the case of `N=C(N)NCCC[C@H](N)C(=O)NCC1(Nc2ccccc2)CCN(Cc2ccccc2)CC1`, the Ki [1] is reported as 4.8 nM, the Ki [2] is reported as 37 nM and the Ki [3] is reported as 3.4 nM.
